The target of the assay is Human Cav3.1 calcium channel (Homo sapiens, UniProt O43497). Description: Human Cav3.1 calcium channel patch clamp assay (SyncroPatch 384PE; single point and IC50, voltage dependent block). The note with it: HEK-293 natClytin/TASK1+Cav3.1 cell line; for % Inhibition (Single Point Data): Testing Conc 1.25, patch clamp; for IC50: read-out: Cav3.1 IC50, voltage dependent block (VDB). Background: The patch-clamp technique gives a direct electrical read-out from membranes.

Sequences of proteins named here, by UniProt entry; tags and fusion partners are left off.
UniProt O43497, whole entry: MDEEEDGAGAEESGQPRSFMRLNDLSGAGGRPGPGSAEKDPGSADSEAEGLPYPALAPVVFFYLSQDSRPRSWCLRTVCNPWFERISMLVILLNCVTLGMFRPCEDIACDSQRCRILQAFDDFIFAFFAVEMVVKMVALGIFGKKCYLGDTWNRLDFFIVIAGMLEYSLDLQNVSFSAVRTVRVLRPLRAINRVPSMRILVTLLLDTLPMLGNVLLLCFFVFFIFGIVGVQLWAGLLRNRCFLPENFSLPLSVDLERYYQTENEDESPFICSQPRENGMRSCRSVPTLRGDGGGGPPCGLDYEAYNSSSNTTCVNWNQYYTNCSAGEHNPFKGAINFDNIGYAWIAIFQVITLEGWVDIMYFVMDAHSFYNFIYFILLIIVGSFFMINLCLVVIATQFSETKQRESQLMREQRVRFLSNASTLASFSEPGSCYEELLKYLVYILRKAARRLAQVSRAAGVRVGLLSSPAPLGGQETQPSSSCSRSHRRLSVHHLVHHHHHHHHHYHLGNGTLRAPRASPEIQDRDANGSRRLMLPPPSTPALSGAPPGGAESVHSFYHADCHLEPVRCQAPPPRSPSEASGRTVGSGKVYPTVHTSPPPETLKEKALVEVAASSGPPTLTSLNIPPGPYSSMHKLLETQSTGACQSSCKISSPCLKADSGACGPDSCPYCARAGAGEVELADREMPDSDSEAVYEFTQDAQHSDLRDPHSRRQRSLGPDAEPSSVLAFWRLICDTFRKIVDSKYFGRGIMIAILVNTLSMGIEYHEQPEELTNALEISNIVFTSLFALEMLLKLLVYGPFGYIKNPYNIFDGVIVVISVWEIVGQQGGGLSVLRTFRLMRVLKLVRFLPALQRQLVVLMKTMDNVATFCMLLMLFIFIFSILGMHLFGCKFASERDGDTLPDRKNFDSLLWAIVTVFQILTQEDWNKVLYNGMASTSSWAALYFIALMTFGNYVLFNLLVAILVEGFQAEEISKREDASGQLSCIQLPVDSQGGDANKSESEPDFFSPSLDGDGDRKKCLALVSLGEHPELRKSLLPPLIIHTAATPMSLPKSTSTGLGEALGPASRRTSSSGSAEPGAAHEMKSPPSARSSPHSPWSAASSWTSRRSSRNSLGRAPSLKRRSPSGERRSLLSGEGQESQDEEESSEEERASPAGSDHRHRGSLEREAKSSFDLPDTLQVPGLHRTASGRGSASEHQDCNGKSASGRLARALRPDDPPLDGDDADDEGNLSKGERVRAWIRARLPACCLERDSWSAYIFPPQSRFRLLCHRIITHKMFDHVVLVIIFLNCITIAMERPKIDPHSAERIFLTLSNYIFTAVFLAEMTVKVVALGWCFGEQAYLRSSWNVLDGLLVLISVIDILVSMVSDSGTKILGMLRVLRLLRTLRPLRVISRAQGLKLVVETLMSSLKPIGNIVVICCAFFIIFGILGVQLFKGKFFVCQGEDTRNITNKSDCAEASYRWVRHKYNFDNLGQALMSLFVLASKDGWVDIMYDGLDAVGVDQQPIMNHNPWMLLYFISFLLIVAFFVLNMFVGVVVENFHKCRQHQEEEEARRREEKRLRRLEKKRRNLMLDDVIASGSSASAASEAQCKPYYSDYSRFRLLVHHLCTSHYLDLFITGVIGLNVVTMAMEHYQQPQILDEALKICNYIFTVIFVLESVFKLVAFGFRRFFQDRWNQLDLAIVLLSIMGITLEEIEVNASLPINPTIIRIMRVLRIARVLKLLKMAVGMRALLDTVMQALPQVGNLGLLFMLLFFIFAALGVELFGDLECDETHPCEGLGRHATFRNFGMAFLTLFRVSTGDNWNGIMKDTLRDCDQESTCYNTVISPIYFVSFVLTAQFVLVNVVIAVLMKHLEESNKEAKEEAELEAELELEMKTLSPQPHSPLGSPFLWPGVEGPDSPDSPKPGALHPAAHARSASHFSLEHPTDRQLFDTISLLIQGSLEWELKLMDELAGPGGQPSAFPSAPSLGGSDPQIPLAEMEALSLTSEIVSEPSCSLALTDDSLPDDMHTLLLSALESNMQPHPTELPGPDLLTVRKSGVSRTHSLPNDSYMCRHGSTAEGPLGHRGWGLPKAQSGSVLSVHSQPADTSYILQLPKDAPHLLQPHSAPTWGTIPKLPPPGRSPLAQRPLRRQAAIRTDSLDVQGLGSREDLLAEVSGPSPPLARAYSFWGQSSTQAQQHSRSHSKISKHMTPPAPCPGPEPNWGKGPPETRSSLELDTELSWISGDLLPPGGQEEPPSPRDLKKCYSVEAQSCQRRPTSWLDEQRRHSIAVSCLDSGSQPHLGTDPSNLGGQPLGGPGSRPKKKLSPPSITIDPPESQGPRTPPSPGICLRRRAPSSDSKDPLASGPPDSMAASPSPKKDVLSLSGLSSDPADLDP

The record followed here is patent US20250213558A1, “T-TYPE CALCIUM CHANNEL MODULATORS COMPRISING A PIPERAZINE OR 1,4-DIAZEPANE CORE AND METHODS OF USE THEREOF” (Praxis Precision Medicines, Inc., priority 2022, published 2025).

By IC50 is commonly meant the concentration that gives 50% inhibition. With `Cc1ccc(Cl)c(NC(=O)CN2CC3CC(C2)N3CC(=O)NC(C)(C)C)c1`, the “% Inhibition (Single Point Data)” value turned out to be 49.751% and the IC50 was 1270 nM.

Turning to `CC(C)(C)NC(=O)CN1CC2CC1CN2CC(=O)Nc1cccc(OC(F)F)c1` (stereo not shown), the “% Inhibition (Single Point Data)” value is on record as 95.485% and the IC50 was determined as 264 nM.
